The values below are quoted from earlier work in publication PMC10835732, “Pharmacokinetics of Hydroxytyrosol and Its Sulfate and Glucuronide Metabolites after the Oral Administration of Table Olives to Sprague-Dawley Rats” (Journal of Agricultural and Food Chemistry, 2024).

For the series the following is noted: after phenolic extract from olive cake containing 10.35 mg/kg of hydroxytyrosol; ref Serra et al. 23; cited from earlier work.

Regarding hydroxytyrosol glucuronide, the “share in rat plasma” value is 2%.
